From patent publication US6686343B1, “Triazolopurine derivatives, pharmaceutical compositions containing the derivatives, and adenosine A3 receptor affinitive agents” (Otsuka Pharmaceutical Factory, Inc., priority 1999, dated 2004)

Target: adenosine A2 receptor (UniProt P30543)
Assay: Adenosine A2 receptor binding capacity
Conditions: read-out: Receptor binding capacity (IC50) Adenosine A2
Protocol: The adenosine A2 receptor binding capacity of the test compound was measured according to the method described in Archives of Pharmacology, 336, 204 (1987) and The Journal of Pharmacology and Experimental Therapeutics, 251 (3), 888 (1989) and then evaluated as IC50.

With `O=C(O)CCc1nc2nc[nH]c2c2nc(-c3ccc(-c4ccccc4)cc3)nn12` [Example 32, 8-(4-biphenylyl)-5-(2-carboxyethyl)-1H-1,2,4-triazolo[5,1-i]purine] the pIC50 was ≤ 5.00.

pIC50: −log10 of the molar value.
